Results as given in patent US6344564B1, “Fungicidal 2-imidazolin-5-ones and 2-imidazoline-5-thiones” (priority 1992, dated 2002).

system: Plasmopara viticola; assay: In vivo test on Plasmopara viticola (grape downy mildew); conditions: in Vitis vinifera, 168 h, dose of 1 g/l, vine cuttings (Vitis vinifera, Chardonnay) sprayed 24 hours before infecting, reading 7 days after infecting, read-out: protection

SMILES | pest or weed control at 1000 µg/mL [%]
CSC1=NC(C)(c2ccccc2)C(=O)N1OCc1ccccc1 (stereo not shown) [Compound 56, 4-phenyl-4-methyl-1-(benzyloxy)-2-methylthio-2-imidazolin-5-one] | ≥ 75
CSC1=NC2(CCCc3ccccc32)C(=O)N1Nc1ccccc1 (stereo not shown) [Compound 97] | ≥ 75
CC1=NC2(CCc3ccccc32)C(=O)N1Nc1ccccc1 (stereo not shown) [Compound 228] | ≥ 75
CSC1=NC(C)(c2ccccc2)C(=O)N1Sc1ccccc1 (stereo not shown) [Compound 95, 4-phenyl-4-methyl-1-(phenylthio)-2-methylthio-2-imidazolin-5-one] | ≥ 75
CSC1=NC2(CCc3ccccc32)C(=O)N1Nc1ccccc1 (stereo not shown) [Compound 98] | ≥ 75
CSC1=NC2(CCCc3ccccc32)C(=O)N1Nc1ccccc1Cl (stereo not shown) [Compound 104] | ≥ 75
CC1=NC2(CCCc3ccccc32)C(=O)N1Nc1ccccc1 (stereo not shown) [Compound 227] | ≥ 75
